Values quoted from earlier work, collected in patent publication US20090010992A1 (priority 2007, published 2009).
This is a selection: effects in other tests are not listed, and their absence says nothing.

Key:
[1] = in vivo
[2] = tablets containing 400 μg of fentanyl

SMILES	GI bioavailability [1] [%]	peak plasma level [2] [ng/mL]	time of peak plasma level post-administration [2] [min]
CCC(=O)N(c1ccccc1)C1(COC)CCN(CCc2cccs2)CC1	12		
CCC(=O)N(c1ccccc1)C1CCN(CCc2ccccc2)CC1		2.5	5
